The values that follow come from PubChem BioAssay AID729 (The Scripps Research Institute Molecular Screening Center, 2007).

Amino acid sequences for entries named in this document (tags omitted). A change or cut given only in a name is not applied to a line headed by its entry.
UniProt O95136: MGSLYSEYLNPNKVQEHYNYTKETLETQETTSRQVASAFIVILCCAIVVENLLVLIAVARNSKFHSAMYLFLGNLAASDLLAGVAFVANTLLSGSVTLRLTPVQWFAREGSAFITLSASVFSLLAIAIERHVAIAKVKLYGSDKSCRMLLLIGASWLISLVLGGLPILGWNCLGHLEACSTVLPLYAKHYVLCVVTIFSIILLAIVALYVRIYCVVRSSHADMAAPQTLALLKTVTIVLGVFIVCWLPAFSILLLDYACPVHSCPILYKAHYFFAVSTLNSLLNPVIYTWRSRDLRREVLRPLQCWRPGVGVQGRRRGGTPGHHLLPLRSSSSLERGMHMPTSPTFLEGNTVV

The list shows a part of the results, in another mix than the full data. Active and inactive are the calls of the source. Cut-off read from the data, not from the text of the source: active = activation above about 16%; inactive = the rest.

The experiment has as its target Sphingosine 1-phosphate receptor 2 (Homo sapiens) (UniProt O95136). As to the kind of experiment: S1P2 receptor agonists, primary screen, cell-based (AID 729).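 Note: 0% = vehicle low control and 100% = maximal reference agonist.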 The following applies: S1P2-expressing cell line, agonist reporter read-out; at 4.5 µM; stronger effect = higher value.
For `CC1(CBr)Cn2c(nc3ccccc3c2=O)S1` (stereo not drawn), the activation was inactive: -4.39%.

Turning to `O=P1(Nc2ccccn2)COc2ccccc2OC1`, the activation was inactive: -4.06%.

As for `Clc1n[nH]nc1-c1nn[nH][15n]1`, the activation was inactive: -4.35%.

As to `O=P1(Nc2ncccn2)COc2ccccc2OC1`, the activation is inactive: -2.42%.

In the case of `Cc1ccc(OCC(=O)OC2CN3CCC2CC3)cc1` (stereo not drawn), the activation is inactive: -3.71%.

Regarding `O=P1(Nc2ccc(Br)cn2)COc2ccccc2OC1`, the activation is inactive: -6.88%.

In the case of `Cc1nn(-c2ccccc2)c2c1P(=O)(N1CCOCC1)N(C)C(c1ccccc1)=N2` (stereo not drawn), the activation is inactive: -2.9%.

With `O=[N+]([O-])c1ccc2c(c1)nnn2O`, the activation was inactive: -0.78%.

For the molecule `CCOP1(=S)c2c(C)nn(CCC#N)c2N=C(c2ccc(F)cc2)N1C` (stereo not drawn), the activation is inactive: -2.1%.

On to `CCOP1(=S)c2c(C)nn(CCC#N)c2N=C(c2ccccc2F)N1C` (stereo not drawn), for which the activation is inactive: -0.85%.

Consider `Cc1cccc(OCC(=O)OC2CN3CCC2CC3)c1` (stereo not drawn), for which the activation was inactive: 0.46%.

For `O=C(OC1CN2CCC1CC2)C12CC3CC(CC(C3)C1)C2` (stereo not drawn), the activation is inactive: -1.57%.

Turning to `ClCCSc1nnc(-c2cccnc2)o1`, the activation is inactive: -3.91%.

Regarding `CCN(CC)C(=S)SC(NC=O)C(Cl)(Cl)Cl` (stereo not drawn), the activation was inactive: -3.47%.

Regarding `CCC(C)N(CC(C)C)C(=S)SC(NC(C)=O)C(Cl)(Cl)Cl` (stereo not drawn), the activation was inactive: -4.17%.

In the case of `COP1(=S)c2c(C)nn(CCC#N)c2N=C(c2ccc(F)cc2)N1C` (stereo not drawn), the activation is inactive: -3.01%.

As to `O=C(COc1ccccc1)OC1CN2CCC1CC2` (stereo not drawn), the activation is inactive: -1.84%.

For `CC1CCN(C(=O)Oc2c(Cl)cc(Cl)c3cccnc23)CC1`, the activation was inactive: 1.06%.

Consider `O=[N+]([O-])c1cccc2n[nH]nc12`, for which the activation was inactive: -3.36%.

As for `CC(=O)N1C2C3N(C(C)=O)C1C1N(C(C)=O)C(C(N1C(C)=O)N3C(C)=O)N2C(C)=O`, the activation was inactive: -2.24%.

`CCc1nc2c(n1)c1c(non1O)c1c2no[n+]1[O-]`: the activation was inactive: -9.99%.

For the molecule `CCOP(=O)(Nc1ccccc1)OCC`, the activation is inactive: -3.79%.

For the molecule `CC(C)CC(=O)NC(Sc1ccc(Cl)cc1)C(Cl)(Cl)Cl` (stereo not drawn), the activation is inactive: -4.26%.

Turning to `Oc1ccccc1CNc1ccccn1`, the activation is inactive: -1.99%.

Turning to `Cc1c2non([O-])c-2c(C)[n+](=O)[n+]1[O-]`, the activation is inactive: 1.69%.

In the case of `CN1CCCC(OC(=O)C(c2ccccc2)c2ccccc2)C1` (stereo not drawn), the activation is inactive: -3.37%.

Consider `O=P1(Nc2nc3ccc(Cl)cc3s2)COc2ccccc2O1` (stereo not drawn), for which the activation is inactive: -3.09%.

For the molecule `COC(=O)c1cc2c(s1)N=C(c1ccccc1)N(C)P2(=O)N1CCOCC1` (stereo not drawn), the activation is inactive: 0.66%.

With `CCC(=O)N1C2C3N(C(=O)CC)C1C1N(C(=O)CC)C(C(N1C(=O)CC)N3C(=O)CC)N2C(=O)CC`, the activation is inactive: -3.81%.

As for `CCOC(=O)NC(Sc1ccccc1)C(Cl)(Cl)Cl` (stereo not drawn), the activation was inactive: -11.1%.

For the molecule `O=C(OC1CN2CCC1CC2)c1cccc(Cl)c1` (stereo not drawn), the activation was inactive: -4.38%.

Turning to `O=P(Nc1nccs1)(c1ccccc1)c1ccccc1`, the activation is inactive: -0.61%.

Regarding `c1nnnn1CCn1cnnn1`, the activation is inactive: -3.65%.
